Assay results reported in PubChem BioAssay (NCI).
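Test compounds were applied to cells in 96-well plates for 48 hours at 5 doses. Here, GI50 denotes the concentration required for 50% inhibition of growth. TGI: total growth inhibition.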

Legend:
Experiment in all cases: NCI tumour cell line growth inhibition, 48 h; in the data active means GI50 below about 0.43 µM; inactive means the rest
786-0 renal = test system: 786-0 renal
A549 NSCLC = test system: A549 NSCLC
ACHN renal = test system: ACHN renal
BT-549 breast = test system: BT-549 breast
CAKI-1 renal = test system: CAKI-1 renal
CCRF-CEM leukemia = test system: CCRF-CEM leukemia
COLO 205 colon = test system: COLO 205 colon
DU-145 prostate = test system: DU-145 prostate
EKVX NSCLC = test system: EKVX NSCLC
HCC-2998 colon = test system: HCC-2998 colon
HCT-116 colon = test system: HCT-116 colon
HCT-15 colon = test system: HCT-15 colon
HL-60(TB) leukemia = test system: HL-60(TB) leukemia
HOP-62 NSCLC = test system: HOP-62 NSCLC
HOP-92 NSCLC = test system: HOP-92 NSCLC
HS 578T breast = test system: HS 578T breast
HT29 colon = test system: HT29 colon
IGROV1 ovarian = test system: IGROV1 ovarian
K-562 leukemia = test system: K-562 leukemia
KM12 colon = test system: KM12 colon
LOX IMVI melanoma = test system: LOX IMVI melanoma
M14 melanoma = test system: M14 melanoma
MALME-3M melanoma = test system: MALME-3M melanoma
MCF7 breast = test system: MCF7 breast
MDA-MB-231 breast = test system: MDA-MB-231 breast
MDA-MB-435 = test system: MDA-MB-435
MDA-N = test system: MDA-N
MOLT-4 leukemia = test system: MOLT-4 leukemia
NCI-H226 lung = test system: NCI-H226 lung
NCI-H23 lung = test system: NCI-H23 lung
NCI-H322M lung = test system: NCI-H322M lung
NCI-H522 lung = test system: NCI-H522 lung
NCI/ADR-RES ovarian = test system: NCI/ADR-RES ovarian
OVCAR-3 ovarian = test system: OVCAR-3 ovarian
OVCAR-4 ovarian = test system: OVCAR-4 ovarian
OVCAR-5 ovarian = test system: OVCAR-5 ovarian
OVCAR-8 ovarian = test system: OVCAR-8 ovarian
PC-3 prostate = test system: PC-3 prostate
RPMI-8226 leukemia = test system: RPMI-8226 leukemia
RXF 393 renal = test system: RXF 393 renal
SF-268 CNS = test system: SF-268 CNS
SF-295 CNS = test system: SF-295 CNS
SF-539 CNS = test system: SF-539 CNS
SK-MEL-2 melanoma = test system: SK-MEL-2 melanoma
SK-MEL-28 melanoma = test system: SK-MEL-28 melanoma
SK-MEL-5 melanoma = test system: SK-MEL-5 melanoma
SK-OV-3 ovarian = test system: SK-OV-3 ovarian
SN12C renal = test system: SN12C renal
SNB-19 CNS = test system: SNB-19 CNS
SNB-75 CNS = test system: SNB-75 CNS
SR leukemia = test system: SR leukemia
SW-620 colon = test system: SW-620 colon
T-47D breast = test system: T-47D breast
TK-10 renal = test system: TK-10 renal
U251 CNS = test system: U251 CNS
UACC-257 melanoma = test system: UACC-257 melanoma
UACC-62 melanoma = test system: UACC-62 melanoma
UO-31 renal = test system: UO-31 renal

FC(F)(F)c1cccc(NC2=NCC(CI)S2)c1 (stereo unspecified)
40.2 µM: TGI (HL-60(TB) leukemia)
> 100 µM: TGI (786-0 renal) | TGI (A549 NSCLC) | TGI (ACHN renal) | TGI (BT-549 breast) | TGI (CAKI-1 renal) | TGI (COLO 205 colon) | TGI (DU-145 prostate) | TGI (EKVX NSCLC) | TGI (HCC-2998 colon) | TGI (HCT-116 colon) | TGI (HCT-15 colon) | TGI (HOP-62 NSCLC) | TGI (HS 578T breast) | TGI (HT29 colon) | TGI (IGROV1 ovarian) | TGI (K-562 leukemia) | TGI (KM12 colon) | TGI (M14 melanoma) | TGI (MALME-3M melanoma) | TGI (MCF7 breast) | TGI (MDA-MB-231 breast) | TGI (MDA-MB-435) | TGI (MDA-N) | TGI (MOLT-4 leukemia) | TGI (NCI-H226 lung) | TGI (NCI-H23 lung) | TGI (NCI-H322M lung) | TGI (NCI-H522 lung) | TGI (NCI/ADR-RES ovarian) | TGI (OVCAR-3 ovarian) | TGI (OVCAR-4 ovarian) | TGI (OVCAR-5 ovarian) | TGI (OVCAR-8 ovarian) | TGI (PC-3 prostate) | TGI (RPMI-8226 leukemia) | TGI (RXF 393 renal) | TGI (SF-268 CNS) | TGI (SF-295 CNS) | TGI (SF-539 CNS) | TGI (SK-MEL-2 melanoma) | TGI (SK-MEL-28 melanoma) | TGI (SK-MEL-5 melanoma) | TGI (SK-OV-3 ovarian) | TGI (SN12C renal) | TGI (SNB-19 CNS) | TGI (SNB-75 CNS) | TGI (SW-620 colon) | TGI (T-47D breast) | TGI (TK-10 renal) | TGI (U251 CNS) | TGI (UACC-257 melanoma) | TGI (UACC-62 melanoma) | TGI (UO-31 renal)
64.8 µM: TGI (LOX IMVI melanoma)
inactive: GI50 (786-0 renal) 69.9 µM | GI50 (A549 NSCLC) > 100 µM | GI50 (ACHN renal) > 100 µM | GI50 (BT-549 breast) 76.9 µM | GI50 (CAKI-1 renal) 63.5 µM | GI50 (CCRF-CEM leukemia) 20.1 µM | GI50 (COLO 205 colon) > 100 µM | GI50 (DU-145 prostate) > 100 µM | GI50 (EKVX NSCLC) > 100 µM | GI50 (HCC-2998 colon) 96.5 µM | GI50 (HCT-116 colon) 92 µM | GI50 (HCT-15 colon) 54.5 µM | GI50 (HL-60(TB) leukemia) 20.3 µM | GI50 (HOP-62 NSCLC) > 100 µM | GI50 (HOP-92 NSCLC) 37.1 µM | GI50 (HS 578T breast) > 100 µM | GI50 (HT29 colon) 67.1 µM | GI50 (IGROV1 ovarian) > 100 µM | GI50 (K-562 leukemia) 57.5 µM | GI50 (KM12 colon) > 100 µM | GI50 (LOX IMVI melanoma) 19.9 µM | GI50 (M14 melanoma) > 100 µM | GI50 (MALME-3M melanoma) > 100 µM | GI50 (MCF7 breast) 73.9 µM | GI50 (MDA-MB-231 breast) 79.9 µM | GI50 (MDA-MB-435) > 100 µM | GI50 (MDA-N) > 100 µM | GI50 (MOLT-4 leukemia) 67 µM | GI50 (NCI-H226 lung) > 100 µM | GI50 (NCI-H23 lung) > 100 µM | GI50 (NCI-H322M lung) > 100 µM | GI50 (NCI-H522 lung) 40.7 µM | GI50 (NCI/ADR-RES ovarian) 79 µM | GI50 (OVCAR-3 ovarian) 80.6 µM | GI50 (OVCAR-4 ovarian) 75.4 µM | GI50 (OVCAR-5 ovarian) > 100 µM | GI50 (OVCAR-8 ovarian) > 100 µM | GI50 (PC-3 prostate) > 100 µM | GI50 (RPMI-8226 leukemia) 42.8 µM | GI50 (RXF 393 renal) 25.1 µM | GI50 (SF-268 CNS) > 100 µM | GI50 (SF-295 CNS) > 100 µM | GI50 (SF-539 CNS) > 100 µM | GI50 (SK-MEL-2 melanoma) > 100 µM | GI50 (SK-MEL-28 melanoma) > 100 µM | GI50 (SK-MEL-5 melanoma) > 100 µM | GI50 (SK-OV-3 ovarian) > 100 µM | GI50 (SN12C renal) > 100 µM | GI50 (SNB-19 CNS) > 100 µM | GI50 (SNB-75 CNS) > 100 µM | GI50 (SR leukemia) 21.4 µM | GI50 (SW-620 colon) 61.4 µM | GI50 (T-47D breast) 46.7 µM | GI50 (TK-10 renal) > 100 µM | GI50 (U251 CNS) > 100 µM | GI50 (UACC-257 melanoma) 52.3 µM | GI50 (UACC-62 melanoma) 68.7 µM | GI50 (UO-31 renal) > 100 µM
59.8 µM: TGI (SR leukemia)
47.4 µM: TGI (CCRF-CEM leukemia)
94.2 µM: TGI (HOP-92 NSCLC)
